This is an account of results in ChEMBL document CHEMBL6109094, “Anti-inflammatory agents design via the fragment hybrid strategy in the discovery of compound c1 for treating ALI and UC” (Eur J Med Chem, 2025).

Each structure is given as a SMILES string.

Common to all, as to format: functional, cell-based
For experiment [1], the system named is J774.A1. Nature of the experiment: Anti-inflammatory activity in mouse J774.A1 cells assessed as inhibition of LPS-induced TNF-alpha level preincubated for 30 mins followed by LPS addition measured after 24 hrs by ELISA. To be noted: dose 0.625-5 µM, time 24.5 hrs. (ELISA stands for enzyme-linked immunosorbent assay.)
In experiment [2] the test system is J774.A1. Nature of the experiment: Anti-inflammatory activity in mouse J774.A1 cells assessed as inhibition of LPS-induced IL-6 level preincubated for 30 mins followed by LPS addition measured after 24 hrs by ELISA. The following applies: dose 0.625-5 µM, time 24.5 hrs.
For experiment [3], the system named is RAW264.7. The experiment in a line: Anti-inflammatory activity in mouse RAW264.7 cells assessed as inhibition of LPS-induced TNF-alpha level preincubated for 30 mins followed by LPS addition measured after 24 hrs by ELISA. The following applies: dose 0.25-2 µM, time 24.5 hrs.
Experiment [4] relates to RAW264.7. The experiment in a line: Anti-inflammatory activity in mouse RAW264.7 cells assessed as inhibition of LPS-induced IL-6 level preincubated for 30 mins followed by LPS addition measured after 24 hrs by ELISA. To be noted: time 24.5 hrs.
The test system of experiment [5] is THP-1. The experiment in a line: Anti-inflammatory activity in human THP-1 cells assessed as inhibition of LPS-induced TNF-alpha level preincubated for 30 mins followed by LPS addition measured after 24 hrs by ELISA. To be noted: dose 1.25-10 µM, time 24.5 hrs.
The test system of experiment [6] is THP-1. Nature of the experiment: Anti-inflammatory activity in human THP-1 cells assessed as inhibition of LPS-induced IL-6 level preincubated for 30 mins followed by LPS addition measured after 24 hrs by ELISA. To be noted: dose 0.625-5 µM, time 24.5 hrs.

In the case of `COc1cc2c(O[C@H]3CC[C@@H](N)CC3)ncnc2cc1OCc1cccc(Br)c1`, the inhibition result in the experiment with J774.A1 [1], in the experiment on J774.A1 [2], in the experiment on RAW264.7 [3], in the experiment on RAW264.7 [4], in the experiment with THP-1 [5] and with THP-1 [6] was “Dose-dependent-effect” each time.

Take `COc1cc2c(O[C@H]3CC[C@@H](N)CC3)ncnc2cc1OCc1ccc([N+](=O)[O-])cc1`: in the experiment on RAW264.7 [4], the inhibition entry is “Dose-dependent-effect”.

For the molecule `COc1cc2c(O[C@H]3CC[C@@H](N)CC3)ncnc2cc1OCc1ccc(C)cc1`, in the experiment with RAW264.7 [4], the inhibition entry was “Dose-dependent-effect”.

As for `COc1cc2c(O[C@H]3CC[C@@H](NCCN4CCNCC4)CC3)ncnc2cc1OCc1ccccc1`, in the experiment with RAW264.7 [4], the inhibition result is “Dose-dependent-effect”.

Turning to `COc1cc2c(O[C@H]3CC[C@@H](N)CC3)ncnc2cc1OCc1cccc(C)c1`, the inhibition entry in the experiment on RAW264.7 [4] is “Dose-dependent-effect”.
